Screening data from PubChem BioAssay.
PTAP TSG101 blk: blocks PTAP/TSG101 interaction to inhibit HIV-1 budding; Q99816; Fluorescence polarization, FITC-PTAP peptide / Tsg101 binding; Potency, µM (doses to about 115 µM), most hits filed as inhibitors; 340,000 tested, under 10 active; AID 493005; active = well fitted inhibition curve with a large enough effect in the main read-out, with a control signal flat, not every such curve was filed as active; inconclusive = small, poorly fitted or top-dose-only effect, or effect the other way, or a change in a side signal; inactive = no such curve, though single readings can be large or run the other way
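Steps: Tsg101 binding domain dispensed (10 uM final), compounds pinned in DMSO, FITC-labeled PTAP-motif peptide added (50 nM final); after 20 min binding at room temperature, polarization measured.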
miR-21 reporter: miR-21 reporter, rising signal | Potency, µM (highest dose often 38.3 µM) | 340,000 tested, under 10 active | HeLa miR-21 FLuc reporter, luciferase, 48 h; active = well fitted rising curve with a large enough effect; inconclusive = small, poorly fitted or top-dose-only effect; inactive = no such curve, though single readings can be large or run the other way;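 note: miR-21 action dims this reporter so a rising signal means less miR-21 action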
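Using DMEM plus 10% FBS, HeLa miR-21-FLuc cells are incubated with test compounds (final up to about 40uM) for 48 hours; firefly luciferase signal is then imaged following reagent-mediated lysis.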
GRP78 ERSR act: induces the endoplasmic reticulum stress response in human glioma cells; AID 602332; U87-MG GRP78 promoter luciferase reporter, 16 h; Potency, µM, most hits filed as activators; 0.02% of 420,000 active; note: series mostly up to about 76 µM; nearly all actives have a fitted effect of over 35% in size
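ERSR induction read as luciferase luminescence (Bright-Glo, 10 min at room temperature) in stably transfected human U87-MG glioma cells exposed to compounds for 16 h, using GRP78 as sensor.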
Nrf2 activator: activates Nrf2 signaling; AREc32 ARE-luciferase reporter (MCF7-derived line), luminescence, 24 h; Potency, µM (top dose mostly 46.1 µM), hits mostly activators; AID 624171; 0.31% of 410,000 active; note: nearly all actives have a fitted effect of over 65% in size
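AREc32 cells carrying an ARE-driven firefly luciferase reporter were seeded at 1000 cells/well in OPTI-MEM with 5% FBS, then exposed to compound for 24 hr at 37 deg C. Luminescence was read with Steady-Glo after 30 min at RT.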
A549 tox: A549 cytotoxicity, counter-screen for Nrf2 inhibitors; A549 ARE-Fluc cells, CellTiter-Fluor viability, 18-24 h; Potency, µM (series often up to 46 µM), usual class: inhibitors; 0.16% of 390,000 active; AID 504648
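A549 ARE-Fluc cells in 5% FBS OPTI-MEM, 5000 cells/well, rested 2 h then exposed to compounds in concentration-response for 18-24 h at 37 °C. Viability by CellTiter-Fluor fluorescence (Ex 405/Em 525) after 30 min; luciferase luminescence (BugLite, 15 min, RT) read afterwards.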
Nrf2 block: inhibitors of Nrf2 signaling | A549 ARE-Fluc reporter, luciferase luminescence, 18-24 h | Potency, µM (doses to about 46 µM), usual class: inhibitors | 2.1% of 360,000 active; note: nearly all actives have a fitted effect of over 60% in size
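Nrf2 function is reported as luminescence of an ARE-controlled luciferase in A549 cells. Compounds were tested at several concentrations, and a CellTiter-Fluor read on the same wells flagged cytotoxicity.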
Hits are given with their value; i = inactive; ? = inconclusive; nt = not tested or not shown. Most compounds without a hit are left out; they make up all but 2.1% or so of the library. Unless noted, calls come from the whole dose curve; as a rule, active = well fitted curve in the direction sought with a large enough effect; inconclusive = small, poorly fitted or top-dose-only effect, or another doubt; inactive = no such curve, though single readings can be large; an effect the other way counts as inactive or inconclusive.

SMILES	PTAP TSG101 blk	miR-21 reporter	GRP78 ERSR act	Nrf2 activator	A549 tox	Nrf2 block
CCN(C(=O)c1cccc(S(=O)(=O)N(C)C)c1)C12CC3CC(CC(C3)C1)C2	i	i	i	i	i	20.6µM
CC[n+]1c(/C=C/C=C2/N(C)c3ccccc3C2(C)C)sc2ccccc21	nt	nt	i	nt	nt	nt
Clc1ccc(N2CCN(/N=C/c3cccnc3)CC2)cc1	i	i	i	i	i	8.2µM
Cc1ccc(N2CCN(/N=C/c3cccnc3)CC2)cc1	i	i	i	i	i	?
O=C(NCC1Cc2cccc(-c3cccnc3)c2O1)c1ccc2cc[nH]c2c1 (stereo not given)	nt	nt	i	nt	nt	nt
Cc1ccc2cccc(NC(=S)NC(=O)c3ccccc3)c2n1	i	i	i	3.98µM	i	i
Cc1csc(NC(=S)NC(=O)c2ccccc2)n1	i	i	i	6.31µM	i	?
Cc1csc(NC(=O)c2ccccc2)n1	i	i	i	i	i	?
COc1cc(OC)nc(NC(=S)NC(=O)c2ccccc2)n1	i	i	i	11.2µM	i	i
Cc1cc(C)c2cccc(NC(=S)NC(=O)c3ccccc3)c2n1	i	i	i	?	i	i
CCOC(=O)Cc1csc(NC(=S)NC(=O)c2ccc(C)cc2)n1	i	i	i	i	i	2.06µM
C=C1C=C(C(F)F)n2ncc(C(=O)Nc3ccc(N(CC)CC)cc3)c2N1	nt	nt	i	nt	nt	nt
COc1cccc(C2c3c(ncn(-c4ccccc4SC)c3=N)Oc3ccc4ccccc4c32)c1 (stereo not given)	nt	nt	nt	nt	i	i
CCCCn1cnc2c(SCc3ccc(Br)cc3)nc(N)nc21	i	nt	i	i	i	18.4µM
COCCn1nnnc1C(c1ccc(OC)c(OC)c1)N1CCN(c2nc3ccccc3s2)CC1 (stereo not given)	i	i	i	i	i	9.2µM
CCC(c1nnnn1CS(=O)(=O)c1ccc(C)cc1)N1CCN(c2nc3ccccc3s2)CC1 (stereo not given)	i	i	i	i	i	8.2µM
COc1ccc(C(c2nnnn2Cc2ccccc2)N2CCN(c3nc4ccccc4s3)CC2)cc1 (stereo not given)	i	i	i	i	i	nt
O=C1CN(S(=O)(=O)c2ccc3c(c2)OCCO3)CCN1S(=O)(=O)c1c(F)cccc1F	nt	nt	nt	nt	i	i
Cc1cc(C(=O)CSc2nc(N)cc(N)n2)c(C)n1CCc1ccc(F)cc1	i	i	i	i	i	14.6µM
Cc1cc(C(=O)COC(=O)c2ccc(O)cc2)c(C)n1CCc1ccc(F)cc1	i	i	i	i	i	i
Cc1ccc(OC(C)c2nnc(N)s2)cc1Cl (stereo not given)	i	i	i	i	i	16.4µM
c1ccc(-c2cn(-c3ccccc3)c3[n+]2CCCS3)cc1	i	i	i	i	i	9.2µM
COC(=O)c1ccc2nc(NC(=O)CSCC(=O)OCC(=O)c3ccccc3)sc2c1	i	i	i	i	i	i
Cc1ccc2nc(NC(=O)CSCC(=O)OCC(=O)c3ccc(Br)cc3)sc2c1	i	i	i	i	i	18.4µM
Clc1ccc2oc(-c3ccccc3)cc(=NCCCN3CCOCC3)c2c1	i	i	i	12.6µM	i	i
SMILES	PTAP TSG101 blk	miR-21 reporter	GRP78 ERSR act	Nrf2 activator	A549 tox	Nrf2 block
CC1CN(CC(=O)NCCC2COc3ccccc3O2)Cc2cc(Cl)ccc2O1 (stereo not given)	nt	nt	i	nt	nt	nt
Cc1ncc(N=Nc2ccccc2)c(-c2ccccc2)n1	i	i	i	3.98µM	i	i
CCn1cnc2c(Nc3ccc(Cc4cccnc4)cc3)nc(C#N)nc21	nt	nt	nt	nt	i	?
CCOc1ccc(/C=C/c2cc[n+](C)c3ccccc23)cc1OCC	nt	nt	i	nt	nt	nt
O=C(N/N=C/c1c(Cl)cccc1Cl)c1ccccc1F	i	i	i	5.01µM	i	?
O=C(N/N=C/c1c(Cl)cccc1Cl)c1ccc(F)cc1	i	i	i	?	i	nt
COc1ccc2c(c1)OC(C)CN(CCNC(=O)C1CCOC1)C2 (stereo not given)	nt	nt	i	nt	nt	nt
O=C(Nc1cccc(N2CCC(NCc3cnn(-c4ccccc4)n3)CC2)c1)c1cccnc1	nt	nt	i	nt	nt	nt
O=[N+]([O-])c1ccc(N2CCN(C(=S)Nc3cccc(F)c3)CC2)cc1	i	i	i	i	i	16.4µM
O=[N+]([O-])c1ccc(N2CCN(C(=S)Nc3ccc(F)cc3F)CC2)cc1	i	i	i	i	?	23.1µM
O=[N+]([O-])c1ccc(N2CCN(C(=S)Nc3ccc(F)cc3)CC2)cc1	i	i	i	i	i	?
COc1ccccc1CNC(=O)c1cnn(-c2nccc(-c3cccs3)n2)c1C	nt	nt	i	nt	nt	nt
COc1cc(-c2cnc3ccccc3c2)cc2c1OCCN(S(=O)(=O)C[C@]13CC[C@H](CC1=O)C3(C)C)C2	nt	nt	i	nt	nt	nt
COCC(=O)Nc1cc(C(=O)NC2Cc3ccccc3C2)cc2nc(-c3cccnc3)n(C)c12	nt	nt	i	nt	nt	nt
CCOC(=O)Cc1csc(NC(=O)CSc2ncnc3c2cnn3-c2ccccc2Cl)n1	i	i	i	i	i	20.6µM
COc1ccc(N2CCN(C(=O)CSc3ncnc4c3cnn4-c3ccccc3C)CC2)cc1	i	i	i	i	i	i
O=C(CSc1ncnc2c1cnn2-c1ccccc1Cl)N1CCN(C(=O)c2ccco2)CC1	i	i	i	i	i	14.6µM
O=C(C1CCCCC1)N1CCOc2ccc(CN3CCN(Cc4ccccn4)CC3)cc2C1	nt	nt	i	nt	nt	nt
CCOC(=O)c1ccccc1NC(=O)Cc1ccc(OC)c(S(=O)(=O)N2CCOCC2)c1	i	nt	i	i	i	18.4µM
COc1ccc(CC(=O)Nc2cccc(Cl)c2C)cc1S(=O)(=O)N1CCOCC1	i	nt	i	i	i	i
Cc1ccc(C(CC(=O)NCc2ccco2)c2ccc(OC(C)C)cc2)cc1 (stereo not given)	i	i	i	i	?	7.31µM
CC(NC(=O)C1CCOCC1)c1nnc2n1CCN(Cc1ccc(F)cc1)CC2 (stereo not given)	nt	nt	i	nt	nt	nt
C#CC1(OC(C)=O)CCC2C3CCC4=CC(OC(C)=O)CCC4C3CCC21C (stereo not given)	nt	nt	i	nt	nt	nt
COc1cc2ccccc2cc1C(=O)N1CCCC1	i	i	i	i	i	?
COc1cc2ccccc2cc1C(=O)N1CC(C)CC(C)C1 (stereo not given)	i	i	i	i	i	11.6µM
CCOc1cccc(C2CC(=O)Nc3cc4c(cc32)OCCO4)c1 (stereo not given)	nt	i	i	i	i	14.6µM
COc1ccccc1C1CC(=O)Nc2cc3c(cc21)OCCO3 (stereo not given)	i	i	i	i	i	?
CC(C)Oc1ccccc1C1CC(=O)Nc2cc3c(cc21)OCCO3 (stereo not given)	i	i	i	i	?	8.2µM
